The assay addresses R132H mutant IDH1 enzyme (Homo sapiens (Human), UniProt O75874, R132H). In words: R132H IDH1 Enzymatic Assay. Format: biochemical. The conditions noted are these: R132H mutant IDH1 enzyme 1.5 nM final; luminescence readout; read-out: IC50.

Amino acid sequences for entries named in this document (tags omitted).
UniProt O75874, whole entry R132H: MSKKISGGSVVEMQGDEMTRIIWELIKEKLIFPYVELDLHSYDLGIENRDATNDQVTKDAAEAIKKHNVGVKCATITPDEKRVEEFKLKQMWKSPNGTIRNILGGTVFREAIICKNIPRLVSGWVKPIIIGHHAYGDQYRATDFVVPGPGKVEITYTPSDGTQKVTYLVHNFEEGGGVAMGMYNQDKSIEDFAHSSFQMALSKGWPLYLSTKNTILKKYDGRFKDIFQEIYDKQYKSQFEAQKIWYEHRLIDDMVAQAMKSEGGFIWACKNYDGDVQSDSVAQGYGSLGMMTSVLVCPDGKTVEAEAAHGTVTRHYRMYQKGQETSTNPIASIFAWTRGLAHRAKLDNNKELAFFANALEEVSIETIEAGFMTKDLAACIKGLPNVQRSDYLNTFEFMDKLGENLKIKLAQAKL

Each structure is given as a SMILES string.

On to `CO[C@H]1CC[C@@H](C(=O)N2Cc3cccnc3Nc3ccc(N4CCN(C5(C(F)(F)F)CC5)CC4)cc32)CC1` [Example 242, 6-[(cis-4-methoxycyclohexyl)carbonyl]-8-{4-[1-(trifluoromethyl)cyclopropyl]piperazin-1-yl}-6,11-dihydro-5H-pyrido[2,3-b][1,5]benzodiazepine], for which the IC50 – broadly, the point on the concentration scale where inhibition reaches its midpoint – is 177 nM.

`CC(C)O[C@H]1CC[C@H](C(=O)N2Cc3cccnc3Nc3ccc(N4CC5(CCCOC5)C4)cc32)CC1` [Example 318, 6-{[trans-4-(1-methylethoxy)cyclohexyl]car-bonyl}-8-(6-oxa-2-azaspiro[3.5]non-2-yl)-6,11-dihydro-5H-pyrido[2,3-b][1,5]benzodiazepine]: the half-inhibitory concentration (IC50) came to 43 nM.

Consider `O=C([C@H]1CC[C@H](NCC(F)(F)F)CC1)N1Cc2cccnc2Nc2ccc(N3CCOCC3)cc21` [Example 437, trans-4-[(8-morpholin-4-yl-5,11-dihydro-6H-pyrido[2,3-b][1,5]benzodiazepin-6-yl)carbonyl]-N-(2,2,2-trifluoroethyl)cyclohexanamine], for which the IC50 came out at 534 nM. As for `CC(C)O[C@H]1CC[C@H](C(=O)N2Cc3cccnc3Nc3ccc(N4CC5COCC(C4)O5)cc32)OC1` [Example 47, (8-(3,9-dioxa-7-azabicyclo[3.3.1]nonan-7-yl)-5,11-dihydro-6H-benzo[b]pyrido[2,3-e][1,4]diazepin-6-yl)((2R,5S)-5-isopropoxytetrahydro-2H-pyran-2-yl)methanone], the figure is 54 nM; as for `CC(C)(C)O[C@H]1CC[C@H](C(=O)N2Cc3cccnc3Nc3ccc(N4C[C@H]5CC[C@@H]4CO5)cc32)OC1` (single isomer, unassigned) [Example 330], 12 nM; as for `CC(C)O[C@H](C)[C@H]1CC[C@@H](C(=O)N2Cc3cccnc3Nc3ccc(N4CCOCC4)cc32)CC1` [Example 171, [8-(Morpholin-4-yl)-5,11-dihydro-6H-pyrido[2,3-b][1,5]benzodiazepin-6-yl]{cis-4-[(1R)-1-(propan-2-yloxy)ethyl]cyclohexyl}methanone], 121 nM. As for `COC1CCC(C(=O)N2Cc3cccnc3Nc3ccc(CCC(=O)N4CCOCC4)cc32)CC1` (stereo not drawn) [Example 421, 6-[(4-methoxycyclohexyl)carbonyl]-8-(3-morpholin-4-yl-3-oxopropyl)-6,11-dihydro-5H-pyrido[2,3-b][1,5]benzodiazepine], the figure is 582 nM. For the compound `CC(C)O[C@H]1CC[C@H](C(=O)N2Cc3cccnc3Nc3ccc(N4CCOCC4)cc32)CC1` [Example 110, 6-{[trans-4-(1-methylethoxy)cyclohexyl]-carbonyl}-8-morpholin-4-yl-6,11-dihydro-5H-pyrido[2,3-b][1,5]benzodiazepine], the concentration for half-maximal inhibition (IC50) turned out to be 50 nM. In the case of `CC(C)O[C@@H](C)[C@H]1CC[C@H](C(=O)N2Cc3cccnc3Nc3ccc(N4CCOCC4)cc32)CC1` [Example 174, [8-(Morpholin-4-yl)-5,11-dihydro-6H-pyrido[2,3-b][1,5]benzodiazepin-6-yl]{trans-4-[(1S)-1-(propan-2-yloxy)ethyl]cyclohexyl}methanone] it was 120 nM; in that of `COC(C)c1ccc2c(c1)N(C(=O)[C@H]1CC[C@H](OC(C)C)CC1)Cc1cccnc1N2` (stereo partly drawn) [Example 542, 8-(1-methoxyethyl)-6-{[trans-4-(1-methylethoxy)cyclohexyl]carbonyl}-6,11-dihydro-5H-pyrido[2,3-b][1,5]benzodiazepine], 22 nM. For `CC(C)O[C@H]1CC[C@H](C(=O)N2Cc3cccnc3Nc3ccc(C4CCCOC4)cc32)CC1` (stereo partly drawn) [Example 374, 6-{[trans-4-(1-methylethoxy)cyclohexyl]carbonyl}-8-(tetrahydro-2H-pyran-3-yl)-6,11-dihydro-5H-pyrido[2,3-b][1,5]benzodiazepine], the IC50 was 11 nM.

Take `C[C@@H](N[C@H]1CC[C@@H](C(=O)N2Cc3cccnc3Nc3ccc(N4CCOCC4)cc32)CC1)C(F)(F)F` [Example 442, cis-4-[(8-morpholin-4-yl-5,11-dihydro-6H-pyrido[2,3-b][1,5]benzodiazepin-6-yl)carbonyl]-N-[(1R)-2,2,2-trifluoro-1-methylethyl]cyclohexanamine]: the 50% inhibitory concentration (IC50) stood at 691 nM. In the case of `CC1CCCCC1C(=O)N1Cc2cccnc2Nc2ccc(N3CCOCC3)cc21` (stereo not drawn) [Example 85, 6-[(2-methylcyclohexyl)carbon-yl]-8-morpholin-4-yl-6,11-dihydro-5H-pyrido[2,3-b][1,5]benzodiazepine] it was 807 nM. In the case of `CO[C@@H]1CO[C@@](C)(c2ccc3c(c2)N(C(=O)[C@H]2CC[C@H](OC(C)C)CO2)Cc2cccnc2N3)C1` (single isomer, unassigned) [Example 142] it was 26 nM; in that of `COc1ccc(C2CN(c3ccc4c(c3)N(C(=O)[C@H]3CC[C@H](OC)CC3)Cc3cccnc3N4)CCO2)cc1` (stereo partly drawn) [Example 253, 6-[(trans-4-methoxycyclohexyl)carbonyl]-8-[2-(4-methoxyphenyl)morpholin-4-yl]-6,11-dihydro-5H-pyrido[2,3-b][1,5]benzodiazepine], 295 nM. Take `C[C@H]1CC[C@@](C)(C(=O)N2Cc3cccnc3Nc3ccc(N4CCOCC4)cc32)C1(C)C` [Example 72, 8-morpholin-4-yl-6-{[(1R,3S)-1,2,2,3-tetramethylcyclopentyl]carbonyl}-6,11-dihydro-5H-pyrido[2,3-b][1,5]benzodiazepine]: the IC50 is 561 nM. In the case of `C[C@H]1CC(F)(F)CC[C@@H]1C(=O)N1Cc2cccnc2Nc2ccc(-c3ccc(C(N)=O)nc3)cc21` (relative stereo) [Example 188, Trans 5-{6-[(4,4-difluoro-2-methylcyclohexyl)carbonyl]-6,11-dihydro-5H-pyrido[2,3-b][1,5]benzodiazepin-8-yl}pyridine-2-carboxamide] it was 99 nM. Regarding `O=C([C@H]1CC[C@@H](NC(C2CC2)C(F)(F)F)CC1)N1Cc2cccnc2Nc2ccc(N3CCOCC3)cc21` (stereo partly drawn) [Example 446, cis-N-[1-cyclopropyl-2,2,2-trifluormoethyl]-4-[(8-morpholin-4-yl-5,11-dihydro-6H-pyrido[2,3-b][1,5]benzodiazepin-6-yl)carbonyl]cyclohexanamine], the half-inhibitory concentration (IC50) was determined as 203 nM.

As for `CO[C@H]1CC[C@H](C(=O)N2Cc3cccnc3Nc3ccc(-c4cnn(C(C)(C)C)c4)cc32)CC1` [Example 363, 8-(1-tert-butyl-1H-pyrazol-4-yl)-6-[(trans-4-methoxycyclohexyl)carbonyl]-6,11-dihydro-5H-pyrido[2,3-b][1,5]benzodiazepine], the half-maximal inhibitory concentration (IC50) is 187 nM. Consider `O=C(C1CC(Oc2ccccc2)C1)N1Cc2cccnc2Nc2ccccc21` (stereo not drawn) [Example 55, 6-[(3-phenoxycyclobutyl)car-bonyl]-6,11-dihydro-5H-pyrido[2,3-b][1,5]benzodiazepine], for which the IC50 worked out at 286 nM.

As to `CC(N1CCC(C(=O)N2Cc3cccnc3Nc3ccc(N4CCOCC4)cc32)CC1)C(F)(F)F` (stereo not drawn) [Example 153, 8-morpholin-4-yl-6-{[1-(2,2,2-trifluoro-1-methylethyl)piperidin-4-yl]carbonyl}-6,11-dihydro-5H-pyrido[2,3-b][1,5]benzodiazepine], the IC50 turned out to be 65 nM. In the case of `O=C([C@H]1CC[C@@H](N2CCC(F)(F)C2)CC1)N1Cc2cccnc2Nc2ccc(N3CCOCC3)cc21` [Example 475, 6-{[cis-4-(3,3-difluoropyrrolidin-1-yl)cyclohexyl]carbonyl}-8-morpholin-4-yl-6,11-dihydro-5H-pyrido[2,3-b][1,5]benzodiazepine] it was 191 nM; in that of `O=C([C@H]1CC[C@@H](N2CC(F)(F)C2)CC1)N1Cc2cccnc2Nc2ccc(N3CCOCC3)cc21` [Example 459, 6-{(cis-4-(3,3-difluoroazetidin-1-yl)cyclohexyl]carbonyl}-8-morpholin-4-yl-6,11-dihydro-5H-pyrido[2,3-b][1,5]benzodiazepine], 237 nM. In the case of `O=C([C@H]1CC[C@H](NC2(C(F)(F)F)CC2)C1)N1Cc2cccnc2Nc2ccc(N3CCOCC3)cc21` (stereo in doubt) [Example 478, (1S,3S)-3-[(8-morpholin-4-yl-5,11-dihydro-6H-pyrido[2,3-b][1,5]benzodiazepin-6-yl)carbonyl]-N-[1-(trifluoromethyl)cyclopropyl]-cyclopentanamine] it was 185 nM. Take `CC(C)OC1CCC(C(=O)N2Cc3cccnc3Nc3ccc(-c4ccc(C(N)=O)nc4)cc32)CC1` (stereo not drawn) [Example 189, 5-(6-{[4-(Propan-2-yloxy)cyclohexyl]carbonyl}-6,11-dihydro-5H-pyrido[2,3-b][1,5]benzodiazepin-8-yl)pyridine-2-carboxamide]: the half-maximal inhibitory concentration (IC50) amounted to 28 nM. As for `CN(CC(F)(F)F)[C@H]1CC[C@@H](C(=O)N2Cc3cccnc3Nc3ccc(N4CCOCC4)cc32)CC1` [Example 505, cis-N-methyl-4-[(8-morpholin-4-yl-5,11-dihydro-6H-pyrido[2,3-b][1,5]benzodiazepin-6-yl)carbonyl]-N-(2,2,2-trifluoroethyl)cyclohexanamine], the half-maximal inhibitory concentration (IC50) was found to be 502 nM.

Consider `Cn1ccc(-c2ccc3c(c2)N(C(=O)[C@H]2CC[C@@H](OCC(F)(F)F)CC2)Cc2cccnc2N3)n1` [Example 383, 8-(1-methyl-1H-pyrazol-3-yl)-6-{[cis-4-(2,2,2-trifluoroethoxy)cyclohexyl]carbonyl}-6,11-dihydro-5H-pyrido[2,3-b][1,5]benzodiazepine], for which the half-inhibitory concentration (IC50) was found to be 83 nM. On to `O=C([C@H]1CC[C@@H](N(CC(F)(F)F)C2CC2)CC1)N1Cc2cccnc2Nc2ccc(C3CCOCC3)cc21` [Example 464, cis-N-cyclopropyl-4-{[8-(tetrahydro-2H-pyran-4-yl)-5,11-dihydro-6H-pyrido[2,3-b][1,5]benzodiazepin-6-yl]carbonyl}-N-(2,2,2-trifluoroethyl)cyclohexanamine], for which the 50% inhibitory concentration (IC50) is 85 nM.

Regarding `COCc1ccc2c(c1)N(C(=O)[C@H]1CC[C@H](OC)CC1)Cc1cccnc1N2` [Example 418, 6-[(Trans-4-methoxycyclohexyl)carbonyl]-8-(methoxymethyl)-6,11-dihydro-5H-pyrido[2,3-b][1,5]benzodiazepine], the IC50 turned out to be 768 nM. In the case of `CO[C@H]1CC[C@H](C(=O)N2Cc3cccnc3Nc3ccc(N4CC(C#N)C4)cc32)CC1` [Example 413, 1-{6-[(trans-4-methoxycyclohexyl)carbonyl]-6,11-dihydro-5H-pyrido[2,3-b][1,5]benzodiazepin-8-yl}azetidine-3-carbonitrile] it was 300 nM.

The record behind these values is patent US10442819B2, “Tricyclic compounds as inhibitors of mutant IDH enzymes” (Merck Sharp & Dohme Corp., priority 2014, dated 2019).
